In patent publication USRE37793E1, “Method and composition for inhibiting bacteria” (Winthrop University Hospital, priority 1995, dated 2002):

Experiments:
[1] = test system: Swiss-Webster female mice; details: mouse, in vivo
[2] = test system: Swiss-Webster female mice; details: mouse, in vivo; remark: listed apart in the source

bismuth nitrate [Bi(NO3)3]
IP LD50 [1]: 53 ± 13 mg/kg
LD50 ([1]; ip): 52±13 mgBi^3+/kg
Oral LD50 [2]: >357 mg/kg
